This passage reports activity score results from PubChem BioAssay AID602363 (Broad Institute, 2012).

Molecules are shown by their SMILES. The list shows a part of the results, in another mix than the full data. The source made the active and inactive calls.

This assay in a line: UUG initiation codon usage in yeast – whole organism, S. cerevisiae, single point, plate reader, primary screen (AID 602363).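 Note: firefly luciferase made from a UUG start codon reports start codon fidelity.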 The note with it: S. cerevisiae UUG-firefly luciferase reporter, luminescence/redox ratio; at 18.7 µM; hits give high values. For orientation: Reporter assays use an easily measured gene product as a stand-in for the process of interest.
On to `CCC(=O)N(c1ccccc1)C1(COC)CCN(CCn2nnn(CC)c2=O)CC1`, for which the activity score was inactive: -0.257%.

`CCC(=O)N(c1ccccc1)C1(COC)CCN(CCc2cccs2)CC1`: the activity score was inactive: -24.8%.
